# Laboratory results from US6562588B2, “Sialidase and recombinant cell lines” (Genentech, Inc., priority 1993, dated 2003).
# Legend:
# [1] = Enzyme activity dependence on pH; format: biochemical, Chinese hamster; settings: purified enzyme, 4-MU-Neu5Ac as substrate
# Method: FIG. 4: Enzyme activity dependence on pH. Assays were carried out with either the purified enzyme) solid filled points or crude cell lysates (clear points) using 4-MU-Neu5Ac as substrate (see Methods). Phosphate buffer: squares. Acetate buffer: triangles.
# A similar result is obtained when the enzyme is assayed in crude cell homogenates, except that the level of activity in the acidic range, pH 3.5-4.5 is slightly greater than with the purified enzyme, FIG. 4. We assume that this activity is due to the presence of the lysosomal sialidase in the crude homogenate which has a pH optimum in the acidic region [Warner et al. Biochemistry, 18:2783 (1979)].
# [2] = Stability of the purified sialidase preparation; format: physicochemical
# Method: The protein is stable during purification and the fractions are stored frozen at −20° C. between purification steps when necessary. […] Even when 20% glycerol is included, about 15% of the activity is lost upon a single freeze thaw cycle.
molecule,measurement,setting,value
CHO cell sialidase: sialidase purified from cell culture fluid of CHO 14.16 Chinese hamster ovary cells (protein) MATCPVLQKETLFQTGDYAYRIPALIYLSKQKTLLAFAEKRLTKTDEHADLFVLRRGSYNADTHQVQWQAEEVVTQAYLEGHRSMSPCPLYDKQTRTLFLFFIAVRGQISEHHQLQTGVNVTRLCHITSTDHGKTWSAVQDLTDTTIGSTHQDWATFGVGPGHCLQLRNTAGSLLVPAYAYRKQPPIHAPAPSAFCFLSHDHGSTWELGHFVSQNSLECQVAEVGTGAERVVYLNARSCLGARVQAQSPNSGLDFQDNQVVSKLVEPPKGCHGSVIAFPNPTSKADALDVWLLYTHPTDSRKRTNLGVYLNQKPLDPTTWSAPTLLATGICAYSDLQNMGHGPDGSPQFGCLYESNNYEEIVFLMFTLKQAFPAVFGAQ,pH optimum,[1],~5.9 pH
same,activity lost upon a single freeze thaw cycle,[2]; final preparation with 20% glycerol,about 15%
same,stability when stored frozen,[2]; −70° C.,three
